Results as given in patent US10065970B2 (Genentech, Inc., priority 2015, dated 2018).

By UniProt entry, the sequences of proteins in these tests, tags left out.
UniProt P42336, whole entry: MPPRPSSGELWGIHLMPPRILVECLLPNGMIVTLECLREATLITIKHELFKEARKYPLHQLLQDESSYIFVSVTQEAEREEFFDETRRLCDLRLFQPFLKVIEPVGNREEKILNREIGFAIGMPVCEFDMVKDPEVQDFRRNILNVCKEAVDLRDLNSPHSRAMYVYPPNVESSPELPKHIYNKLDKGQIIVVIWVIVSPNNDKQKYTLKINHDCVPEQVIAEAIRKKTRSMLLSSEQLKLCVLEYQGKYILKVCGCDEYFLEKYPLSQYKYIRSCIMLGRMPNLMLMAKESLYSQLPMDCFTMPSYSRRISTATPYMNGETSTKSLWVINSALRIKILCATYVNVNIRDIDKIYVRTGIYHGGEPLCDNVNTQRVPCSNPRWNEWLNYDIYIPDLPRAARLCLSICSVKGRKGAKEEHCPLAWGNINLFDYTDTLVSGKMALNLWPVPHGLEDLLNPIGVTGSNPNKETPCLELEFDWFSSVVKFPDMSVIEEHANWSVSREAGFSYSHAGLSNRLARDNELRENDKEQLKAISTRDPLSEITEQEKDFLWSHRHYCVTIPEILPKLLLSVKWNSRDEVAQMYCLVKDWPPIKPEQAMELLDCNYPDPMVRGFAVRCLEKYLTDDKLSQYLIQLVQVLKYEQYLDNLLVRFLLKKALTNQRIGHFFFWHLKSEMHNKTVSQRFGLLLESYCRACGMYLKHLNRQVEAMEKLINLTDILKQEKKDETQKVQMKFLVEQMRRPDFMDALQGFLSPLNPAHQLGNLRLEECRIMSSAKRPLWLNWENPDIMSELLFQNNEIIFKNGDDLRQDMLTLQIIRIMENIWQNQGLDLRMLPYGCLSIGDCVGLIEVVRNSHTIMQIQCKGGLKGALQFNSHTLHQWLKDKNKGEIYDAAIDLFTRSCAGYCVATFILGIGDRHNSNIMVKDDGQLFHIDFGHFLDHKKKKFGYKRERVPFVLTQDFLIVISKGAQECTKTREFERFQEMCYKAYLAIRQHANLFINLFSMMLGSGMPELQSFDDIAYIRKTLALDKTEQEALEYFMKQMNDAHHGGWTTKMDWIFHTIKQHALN

target: PI3Kα (alpha) (Homo sapiens (Human), UniProt P42336); experiment: p110α (alpha) PI3K Binding Assay (ADP-Glo lipid kinase reaction); format: biochemical; conditions: PI3K alpha 0.2 nM, ATP 40 μM, PIP2:3PS 50 μM, 120 min, room temperature; Ki by Morrison Equation; read-out: PI3Kα-(alpha) ATP (Ki) micromolar
Experimental: The ability of a compound of the invention to act as an inhibitor of PI3Kα was determined using the methods of Example 901.
PI3K Binding assays are intended for determining the biochemical potency of small molecule PI3K inhibitors. The PI3K lipid kinase reaction is performed in the presence of PIP2:3PS lipid substrate (Promega #V1792) and ATP. Following the termination if the kinase reaction, turnover of ATP to ADP by the phosphorylation of the lipid substrate is detected using the Promega ADP-Glo™ (Promega #V1792) assay. Reactions are carried out using the following conditions:
After 120 minutes of reaction time, the kinase reaction is terminated. Any ATP remaining after the reaction is depleted, leaving only ADP. Then the Kinase Detection Reagent is added to convert ADP to ATP, which is used in a coupled luciferin/luciferase reaction. The luminescent output is measured and is correlated with kinase activity.
All reactions are carried out at room temperature. A 3 μl mixture (1:1) of enzyme/lipid substrate solution is added to a 384 well white assay plate (Perkin Elmer #6007299) containing 50 nl of test compound or DMSO only for untreated controls. The reaction is started by the addition of 2 μl ATP/MgCl2. The kinase reaction buffer contains 50 mM HEPES, 50 mM NaCl, 3 mM MgCl2, 0.01% BSA, 1% DMSO, and enzyme and substrate concentrations as indicated in the above table. The reaction is stopped by the addition of 10 μL ADP-Glo reagent. Plates are read in a Perkin Elmer Envision system using luminescence mode. 10 point dose response curves are generated for each test compound. Ki values for each compound are determined using the Morrison Equation.

| SMILES | Ki [nM] |
| --- | --- |
| NC(=O)[C@@H]1CCCN1c1cc2c3c(c1)nc(-c1ccc4oc(N)nc4c1)n3CCCO2 [Example 104, (S)-1-(1-(2-Aminobenzo[d]oxazol-5-yl)-8,9-dihydro-7H-6-oxa-2,9a-diazabenzo[cd]azulen-4-yl)pyrrolidine-2-carboxamide] | 0.071 |
| COc1nc(C)cc(-c2nc3cc(N[C@H](C(N)=O)C4CC4)cc4c3n2CCCO4)n1 [Example 121, (S)-2-Cyclopropyl-2-((1-(2-methoxy-6-methylpyrimidin-4-yl)-8,9-dihydro-7H-6-oxa-2,9a-diazabenzo[cd]azulen-4-yl)amino)acetamide] | 30.6 |
| NC(=O)c1cccc(-c2nc3cc(N[C@H](C(N)=O)C4CC4)cc4c3n2CCCO4)c1 [Example 146, (S)-3-(4-((2-Amino-1-cyclopropyl-2-oxoethyl)amino)-8,9-dihydro-7H-6-oxa-2,9a-diazabenzo[cd]azulen-1-yl)benzamide] | 52.9 |
| NC(=O)[C@@H](Nc1cc2c3c(c1)nc(-c1ccc4ncc(O)cc4c1)n3CCCO2)C1CC1 [Example 189, (S)-2-Cyclopropyl-2-((1-(3-hydroxyquinolin-6-yl)-8,9-dihydro-7H-6-oxa-2,9a-diazabenzo[cd]azulen-4-yl)amino)acetamide] | 6.12 |
| NC(=O)[C@@H]1CCCN1c1cc2c3c(c1)nc(-c1ccc4[nH]nnc4c1)n3CCCO2 [Example 200, (5)-1-(1-(1H-Benzo[d][1,2,3]triazol-5-yl)-8,9-dihydro-7H-6-oxa-2,9a-diazabenzo[cd]azulen-4-yl)pyrrolidine-2-carboxamide] | 4.59 |
| NC(=O)[C@@H]1CCCN1c1cc2c3c(c1)nc(-c1ccc4nc(N)sc4c1)n3CCCCO2 [Example 239, (S)-1-(1-(2-Aminobenzo[d]thiazol-6-yl)-7,8,9,10-tetrahydro-6-oxa-2,10a-diazacycloocta[cd]inden-4-yl)pyrrolidine-2-carboxamide] | 0.035 |
| C[C@@H](C(N)=O)N(C)c1cc2c3c(c1)nc(-c1ccc4oc(N)nc4c1F)n3CCCCO2 [Example 270, (S)-2-((1-(2-Amino-4-fluorobenzo[d]oxazol-5-yl)-7,8,9,10-tetrahydro-6-oxa-2,10a-diazacycloocta[cd]inden-4-yl)(methyl)amino)propanamide] | 0.03 |
| CO[C@@H]1CCN(c2cc3c4c(c2)nc(-c2ccc5nc(N)sc5c2)n4CCCCO3)[C@@H]1C(N)=O [Example 300, (2S,3R)-1-(1-(2-Aminobenzo[d]thiazol-6-yl)-7,8,9,10-tetrahydro-6-oxa-2,10a-diazacycloocta[cd]inden-4-yl)-3-methoxypyrrolidine-2-carboxamide] | 0.045 |
